Ab-14 heavy chain CDR variants: yeast mating affinities

Values reported by Engelhart et al. 2022, doi:10.1038/s41597-022-01779-4 (FLAb copy).

Target: peptide PDVDLGDISGINAS, taken from heptad repeat 2 (HR2) of SARS-CoV-2 spike.

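AAYL49 was designed without a model: most single CDR substitutions and a random sample of double and triple ones. AlphaSeq pools MATa yeast showing the antibodies with MATalpha yeast showing the peptide. The frequency of each diploid, read from paired DNA barcodes, reflects how well the two displayed proteins bind. Each replicate has its own calibration line, from reference interactions of the BCL2 family. There are three technical replicates.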

Parent scFv Ab-14: VH joined to VL by a 15-residue (Gly4Ser)3 linker. Changes lie in the heavy chain CDRs alone.
VH: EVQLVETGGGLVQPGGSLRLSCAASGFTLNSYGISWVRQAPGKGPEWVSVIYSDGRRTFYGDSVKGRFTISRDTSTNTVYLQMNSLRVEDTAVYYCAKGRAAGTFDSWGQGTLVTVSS
VL: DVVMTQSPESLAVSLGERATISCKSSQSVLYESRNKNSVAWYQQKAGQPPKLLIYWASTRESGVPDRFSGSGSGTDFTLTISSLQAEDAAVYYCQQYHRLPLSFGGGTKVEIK

Positions count from residue 1 of the parent VH; G55D puts D in place of G.
Kd is apparent (estimated from mating counts) and averaged on the log scale over replicates with a signal. Smaller is tighter.
Where no diploid with the target was found in any replicate, the entry reads "no signal": below detection, most likely a poor binder, though not proof of it.
Nonspecific signal, from three strains lacking the peptide, appeared in 15% of pairings of library AAYL49, centred on 11 µM (5% of these signals below 680 nM); values are not corrected for it.

changes | Kd (apparent) | seen in
G55D R56Y | 17 µM | 1/3
I34L T58S S107L | no signal | 0/3
S31Q Y52N D54Q | 220 µM | 1/3
Y32R D54Y D106M | no signal | 0/3
Y52Q S63Y G103F | no signal | 0/3
G26C Y52T S53G | 24 µM | 3/3
I34C G61A S63C | no signal | 0/3
V50W R57E K65R | no signal | 0/3
V50Q Y60M S107M | 29 µM | 1/3
L29Y A102E T104P | no signal | 0/3
T28G Y32L I51F | no signal | 0/3
I51S A101M | 950 nM | 2/3
G26C G33P S35K | 33 µM | 1/3
F27M A101M G103Y | no signal | 0/3
G26W G33P Y52H | 440 nM | 1/3
N30A K65G T104I | no signal | 0/3
F27D F59S | 2.3 nM | 3/3
I34Q T58I A102I | 1.6 µM | 1/3
N30G Y52K A102V | 1.5 µM | 2/3
T28G I34N R57S | 55 µM | 2/3
G26A K65H G99F | no signal | 0/3
G61Q V64T A102H | no signal | 0/3
S53M D54V R57T | 550 nM | 1/3
G26V G55W T104D | no signal | 0/3

Second part, the sequence after the result:

Kd (apparent) | seen in | changes
5.3 µM | 1/3 | T58E G99V R100D
1.5 mM | 2/3 | Y60C V64H G99K
no signal | 0/3 | S31W D62A S63F
no signal | 0/3 | N30H G33E S107A
no signal | 0/3 | V50M S53T R100A
5.5 µM | 3/3 | I34L K65L
no signal | 0/3 | G33V V50K R100C
150 µM | 2/3 | L29F G55K F59E
no signal | 0/3 | S31L R56D T104W
no signal | 0/3 | Y52L S53D F59T
2.5 µM | 1/3 | I34Q D54T R57M
no signal | 0/3 | V50R G61R G103E
12 µM | 3/3 | T28V V50Q K65A
41 µM | 1/3 | T28E V50S R100N
no signal | 0/3 | A101G T104R S107Q
51 nM | 3/3 | G61C G99F R100P
no signal | 0/3 | S35G Y60K T104L
6.9 nM | 3/3 | I34V R100T
no signal | 0/3 | Y52R D54Q A101W
no signal | 0/3 | S31C I51Y F59R
25 nM | 3/3 | S31E T58A S107Y
160 nM | 3/3 | N30I A102H
9.4 µM | 1/3 | G33V F59M V64Q
no signal | 0/3 | T28G D54A G103Y

The 6 strongest on average among those seen in every replicate, once more:

| changes | Kd (apparent) | seen in |
|---|---|---|
| F27D F59S | 2.3 nM | 3/3 |
| I34V R100T | 6.9 nM | 3/3 |
| S31E T58A S107Y | 25 nM | 3/3 |
| G61C G99F R100P | 51 nM | 3/3 |
| N30I A102H | 160 nM | 3/3 |
| I34L K65L | 5.5 µM | 3/3 |